From patent US20090181041A1 (published 2009)

Molecular target: T1, PSGL-1/mIgG2b fusion protein produced in Pichia pastoris (mouse, UniProt Q14242 18-320 (human entry), O-linked mannose glycans (Hex2-9) and N-linked glycans from expression in P. pastoris; sites not given)
T1 construct: extracellular domain; Homodimeric chimeric glycoprotein, about 250-300 kDa, secreted from P. pastoris GS115 by the pPICZalpha vector and purified on MabSelect SuRe; also called PSGL-1/mlgG2b; Pp/PSGL1-mIgG2b; not shown: Fc part of mouse IgG2b
T1 sequence (looked up): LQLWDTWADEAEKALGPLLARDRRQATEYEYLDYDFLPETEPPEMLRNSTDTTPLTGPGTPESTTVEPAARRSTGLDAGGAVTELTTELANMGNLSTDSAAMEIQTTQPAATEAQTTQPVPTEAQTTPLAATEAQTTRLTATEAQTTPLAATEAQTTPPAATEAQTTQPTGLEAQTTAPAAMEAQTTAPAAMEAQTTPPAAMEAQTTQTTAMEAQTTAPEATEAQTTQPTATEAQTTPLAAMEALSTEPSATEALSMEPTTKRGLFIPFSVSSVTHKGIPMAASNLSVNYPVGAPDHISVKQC
Test: SPR (Biacore 2000), receptor amine-coupled on CM5 chip, fusion protein as analyte, apparent Kd from steady state
Description: Immunoglobulin fusion proteins of PSGL-1 and AGP produced in wild type Pichia and purified, as described in Example 1, were used in experiments to assess their ability to bind to recombinant human macrophage mannose receptor (MMR), DC-SIGN/Fc chimera and mannan binding lectin (MBL) Using Biacore (real time surface plasmon resonance spectroscopy) analysis as follows.
Analyses were performed using a Biacore 2000 instrument (Biacore, GE Healthcare, Uppsala, Sweden). Recombinant human macrophage mannose receptor (MMR), DC-SIGN/Fc chimera and mannan binding lectin (MBL) were purchased from R & D Systems and immobilized on a CM5 sensor chip using amine coupling chemistry according to the manufacturer's instructions. Briefly, activation of the surface was made with EDC/NHS 1:1, 10 μL/min for 7 minutes and the receptors were dissolved in sodium acetate buffer pH 4.5 at concentrations of 15 μg/ml for MMR, 10 μg/ml for DC-SIGN and 90 μg/ml for MBL and immobilized at 10 μl/min for 7 minutes. Deactivation of excess of reactive groups was made with ethanolamine, 20 μl/min for 7 minutes. […] Data were calculated using BIAevaluation 4.1 software (Biacore, GE Healthcare) and the apparent equilibrium dissociation constants (Kd) were calculated by plotting steady state binding levels against the analyte concentrations for several concentrations simultaneously. […]

B1: mannan binding lectin (MBL) (other, human, UniProt P11226 21-248, looked up)
chain: ETVTCEDAQKTCPAVIACSSPGINGFPGKDGRDGTKGEKGEPGQGLRGLQGPPGKLGPPGNPGPSGSPGPKGQKGDPGKSPDGDSSLAASERKALQTEMARIKKWLTFSLGKQVGNKFFLTNGEIMTFEKVKALCVKFQASVATPRNAAENGAIQNLIKEEAFLGITDEKTEGQFVDLTGNRLTYTNWNEGEPNNAGSDEDCVLLLKNGQWNDVPCSTSHLAVCEFPI
notes: Amine-coupled to a CM5 chip at 5676 RU
Kd: 4.23 nM
